Experimental data from article PMC5392334, “Discovery and characterization of a novel irreversible EGFR mutants selective and potent kinase inhibitor CHMFL-EGFR-26 with a distinct binding mode” (Oncotarget, 2017).

Legend:
[1] = test system: EGFR Y1068 phosphorylation in BaF3-FL-EGFR-L858R -T790M cells; settings: BaF3-TEL-EGFR versus BaF3-FL-EGFR-L858R -T790M
[2] = test system: EGFR kinase wt/mutants expressing BaF3 isogenic cell lines; settings: all sensitive mutants, BaF3 (GI50)

C=CC(=O)N1CCC[C@@H](n2nc(-c3ccc(OCc4cccc(C)n4)c(Cl)c3)c3c(N)ncnc32)C1 [CHMFL-EGFR-26]
selectivity between the EGFR wt and EGFRL858R/T790M (Y1068 phosphorylation EC50) [1]: 15 fold | loss of activity when C797S mutant was introduced [2]: 50-10000 folds
